The record followed here is publication PMC11291268.

B1: Gαo-GFP wild-type [human] / His6-RGS19 [not stated] (parent)
chain 1: MGCTLSAEERAALERSKAIEKNLKEDGISAAKDVKLLLLGAGESGKSTIVKQMKIIHEDGFSGEDVKQYKPVVYSNTIQSLAAIVRAMDTLGIEYGDKERKADAKMVCDVVSRMEDTEPFSAELLSAMMRLWGDSGIQECFNRSREYQLNDSAKYYLDSLDRIGAADYQPTEQDILRTRVKTTGIVETHFTFKNLHFRLFDVGGQRSERKKWIHCFEDVTAIIFCVALSGYDQVLHEDETTNRMHESLMLFDSICNNKFFIDTSIILFLNKKDLFGEKIKKSPLTICFPEYTGPNTYEDAAAYIQAQFESKNRSPNKEIYCHMTCATDTNNIQVVFDAVTDIIIANNLRGCGLY
chain 2: MPTPHEAEKQITGPEEADRPPSMSSHDTASPAAPSRNPCCLCWCCCCSCSWNQERRRAWQASRESKLQPLPSCEVCATPSPEEVQSWAQSFDKLMHSPAGRSVFRAFLRTEYSEENMLFWLACEELKAEANQHVVDEKARLIYEDYVSILSPKEVSLDSRVREGINKKMQEPSAHTFDDAQLQIYTLMHRDSYPRFLSSPTYRALLLQGPSQSSSEA

The variants in the assay derive from B1. Briefly: co-IP (anti-GFP nanobody) with Western blot quantification. The settings on record: N2a cells, n = 3, parent: 1, read off a plot.
Regarding chain 1 A227V, the ratio to parent (folds over Gαo wild-type) was determined as 0.06.
chain 1 Q233P: the ratio to parent (folds over Gαo wild-type) was 0.03.
For chain 1 E246K the value was 0.02; for chain 1 N270H, 0.04; for chain 1 R209C, 0.03.
Consider chain 1 L199P, for which the ratio to parent (folds over Gαo wild-type) was 0.05.
The figure for chain 1 F275S is 0.07.
Take chain 1 S47G: the ratio to parent (folds over Gαo wild-type) was found to be 0.03.
On to chain 1 G45E, for which the ratio to parent (folds over Gαo wild-type) came out at 0.01.
Regarding chain 1 I279N, the ratio to parent (folds over Gαo wild-type) turned out to be 0.18.
For chain 1 G40R the value was 0.01; for chain 1 Y231C, 0.07; for chain 1 C215Y, 0.08.
Take chain 1 E237K: the ratio to parent (folds over Gαo wild-type) is 0.2.
As for chain 1 D174G, the ratio to parent (folds over Gαo wild-type) is 0.04.
The figure for chain 1 G203R is 0.04.
